Measurements taken from US20070212428A1, “METHODS AND COMPOSITIONS FOR TREATING MOOD DISORDER” (MOOD MANAGEMENT SCIENCES, INC., priority 2004, published 2007).

Key:
[1] = test system: neuronal serotonin reuptake; conditions: cited from earlier work
[2] = test system: treatment resistant depression; type: in vivo, human; conditions: augmenting Zoloft, titrated to 120 mg
[3] = cited from earlier work; for time to peak plasma concentration: after oral dosing
[4] = cited from earlier work; for mean increase in Cmax / mean increase of the AUC: following fluvoxamine
[5] = test system: muscarinic, α1-adrenergic, α2-adrenergic, β-adrenergic, dopamine (D2), 5-HT1, 5-HT2, and histamine (H1) receptors; conditions: cited from earlier work
[6] = test system: serotonin 5-HT2, dopamine D2, α1 and α2 adrenergic, and H1 histaminergic receptors; conditions: cited from earlier work
[7] = with fluoxetine 60 mg single dose or 60 mg daily for 8 days

Question: With “1-(aminoethyl)cyclohexaneacetic acid [gabapentin]” as the compound, how does the “inhibition of serotonin reuptake (in words)” value [1] read?
Answer: The value was “does not alter”.

Question: For `CNCC[C@H](Oc1cccc2ccccc12)c1cccs1.Cl` [duloxetine, (+)-(S)-N-methyl-γ-(1-naphthyloxy)-2-thiophenepropylamine hydrochloride], which resolution of depression [2] is on record?
Answer: The resolution of depression was “approximately 50%”.

Question: What about the “time to steady state plasma concentrations” value ([3]; repeated dosing) of the same compound?
Answer: The value was 3 days.

Question: What does the source list for `Cc1cc2c(s1)Nc1ccccc1N=C2N1CCN(C)CC1` [olanzapine, 2-methyl-4-(4-methyl-1-piperazinyl)-10H-thieno[2,3-b][1,5]benzodiazepine]?
Answer: clearance ([4]; co-administered with fluvoxamine): decreases; mean increase in Cmax ([4]; female non smokers): 54%; mean increase of the AUC ([4]; female non smokers): 52%; mean increase in Cmax ([4]; male smokers): 77%; mean increase of the AUC ([4]; male smokers): 108%; effect on each drug's metabolism ([4]; olanzapine co-administered with valproate): little effect; clearance [4, 7]: small decrease; maximum concentration [4, 7]: small increase; time to peak plasma concentration [3]: approximately 6 hours; time to steady state plasma concentrations ([3]; daily dosing): about 1 week; fraction of the dose metabolized before reaching system circulation (first pass) ([3]; human, in vivo): approximately 40%

Question: For `Fc1ccc([C@@H]2CCNC[C@H]2COc2ccc3c(c2)OCO3)cc1` [paroxetine, (−)-trans-4R-(4′-fluorophenyl)-3S-[(3′,4′-methylenedioxyphenloxy)methyl]piperidine hydrochloride hemihydrate], which affinity [5] is on record?
Answer: The affinity was “little affinity”.

Question: Which results are given for `Cc1nc2n(c(=O)c1CCN1CCC(c3noc4cc(F)ccc34)CC1)CCCC2` [risperidone, 3-[2-[4-(6-fluoro-1,2-benzisoxazol-3-yl)piperidino]ethyl]-2-methyl-6,7,8,9-tetrahydro-4H-pyrido-[1,2-a]pyrimidin-4-one]?
Answer: affinity [6]: high affinity; increase of plasma concentrations ([4]; co-administered with fluoxetine (20 mg QD)): 2.5-2.8 fold; time to peak plasma concentration [3]: about 1 hours; half-life ([3]; extensive metabolizers): 3 h; time to steady state concentrations ([3]; extensive metabolizers): 1 days; time to steady state concentrations ([3]; poor metabolizers (expected)): about 5 days; half-life ([3]; poor metabolizers): 20 h; decrease of clearance of risperidone and its metabolites ([3]; renally impaired): 60%

Where a name gives a salt, the structure may show the parent alone. Read-outs that look alike come from different tables or passages of the source.
